Data taken from the CheMixHub viscosity set.

Key:
[1] = xn = mol fraction of the nth substance listed

CCCCOCCCC + CCCCCCCCCCCC
viscosity [mPa·s], [1], 101 kPa
Conditions	x1 = 0.1043	x1 = 0.2032	x1 = 0.3143	x1 = 0.4082	x1 = 0.5025	x1 = 0.6112	x1 = 0.7132	x1 = 0.8049	x1 = 0.9036
298.15 K	1.218	1.135	1.05	0.9785	0.9172	0.8492	0.7899	0.7407	0.6887
308.15 K	1.033	0.9683	0.8991	0.8419	0.7943	0.7421	0.6971	0.6593	0.6193
318.15 K	0.878	0.8239	0.7644	0.7209	0.6809	0.6398	0.6037	0.5754	0.5451

CCCCOCCCC + CCC(C)=O
viscosity [mPa·s], [1], 101.3 kPa
Conditions	x2 = 0.1005	x2 = 0.2	x2 = 0.3	x2 = 0.4	x2 = 0.5	x2 = 0.6	x2 = 0.7	x2 = 0.8002	x2 = 0.8998
303.15 K	0.6078	0.5656	0.5411	0.5123	0.4882	0.4677	0.448	0.433	0.4036
313.15 K	0.5347	0.5046	0.4801	0.4584	0.4403	0.4254	0.4039	0.392	0.3713
323.15 K	0.4826	0.4547	0.4348	0.4173	0.398	0.3829	0.3693	0.3587	0.3465

CCCCOCCCC + CCCCCCCCCC
viscosity [mPa·s], [1], 101 kPa
Conditions	x1 = 0.1132	x1 = 0.2231	x1 = 0.3298	x1 = 0.4079	x1 = 0.5096	x1 = 0.6084	x1 = 0.7046	x1 = 0.7982	x1 = 0.9118
298.15 K	0.8032	0.7734	0.7483	0.7282	0.7089	0.6932	0.6773	0.6663	0.6562
308.15 K	0.709	0.6856	0.6645	0.6499	0.6336	0.6207	0.6106	0.604	0.5957
318.15 K	0.603	0.5865	0.5701	0.5586	0.5456	0.537	0.533	0.5289	0.5222

CCCCOCCCC + Cc1ccccc1
viscosity [mPa·s], [1], 101.32 kPa
Conditions	298.15 K	308.15 K
x1 = 0.0549	0.554	0.502
x1 = 0.1507	0.561	0.508
x1 = 0.249	0.567	0.514
x1 = 0.351	0.574	0.52
x1 = 0.4355	0.58	0.527
x1 = 0.4982	0.586	0.533
x1 = 0.5113	0.588	0.534
x1 = 0.6473	0.601	0.548
x1 = 0.7525	0.612	0.56
x1 = 0.8513	0.625	0.572
x1 = 0.9539	0.635	0.585

CCCCOCCCC + CCCO
[1], 101.3 kPa
Conditions	viscosity [mPa·s]
293.15 K, x1 = 0.0203	2.009
293.15 K, x1 = 0.0485	1.89
293.15 K, x1 = 0.0957	1.66
293.15 K, x1 = 0.1451	1.49
293.15 K, x1 = 0.2035	1.309
293.15 K, x1 = 0.2427	1.24
293.15 K, x1 = 0.2845	1.147
293.15 K, x1 = 0.3218	1.085
293.15 K, x1 = 0.3412	1.055
293.15 K, x1 = 0.3848	0.988
293.15 K, x1 = 0.4397	0.932
293.15 K, x1 = 0.5319	0.852
293.15 K, x1 = 0.6752	0.764
293.15 K, x1 = 0.8209	0.709
293.15 K, x1 = 0.8793	0.691
298.15 K, x1 = 0.0203	1.8
298.15 K, x1 = 0.0485	1.698
298.15 K, x1 = 0.0957	1.498
298.15 K, x1 = 0.1451	1.351
298.15 K, x1 = 0.2035	1.194
298.15 K, x1 = 0.2427	1.117
298.15 K, x1 = 0.2845	1.049
298.15 K, x1 = 0.3412	0.96
298.15 K, x1 = 0.3848	0.912
298.15 K, x1 = 0.4397	0.866
298.15 K, x1 = 0.5319	0.796
298.15 K, x1 = 0.6752	0.721
298.15 K, x1 = 0.8209	0.667
298.15 K, x1 = 0.8793	0.65
298.15 K, x2 = 0.052	0.621
298.15 K, x2 = 0.092	0.628
298.15 K, x2 = 0.201	0.655
298.15 K, x2 = 0.296	0.689
298.15 K, x2 = 0.398	0.74
298.15 K, x2 = 0.486	0.805
298.15 K, x2 = 0.591	0.903
298.15 K, x2 = 0.695	1.039
298.15 K, x2 = 0.808	1.249
298.15 K, x2 = 0.903	1.522
298.15 K, x2 = 0.956	1.729
303.15 K, x1 = 0.0203	1.628
303.15 K, x1 = 0.0485	1.507
303.15 K, x1 = 0.0957	1.335
303.15 K, x1 = 0.1451	1.201
303.15 K, x1 = 0.2035	1.082
303.15 K, x1 = 0.2427	1.012
303.15 K, x1 = 0.2845	0.953
303.15 K, x1 = 0.3218	0.907
303.15 K, x1 = 0.3412	0.885
303.15 K, x1 = 0.3848	0.841
303.15 K, x1 = 0.4397	0.793
303.15 K, x1 = 0.5319	0.728
303.15 K, x1 = 0.6752	0.662
303.15 K, x1 = 0.8209	0.616
303.15 K, x1 = 0.8793	0.602
308.15 K, x1 = 0.0677	1.282
308.15 K, x1 = 0.1252	1.129
308.15 K, x1 = 0.1601	1.052
308.15 K, x1 = 0.2091	0.963
308.15 K, x1 = 0.2583	0.89
308.15 K, x1 = 0.3281	0.812
308.15 K, x1 = 0.3754	0.771
308.15 K, x1 = 0.426	0.735
308.15 K, x1 = 0.482	0.703
308.15 K, x1 = 0.5396	0.675
308.15 K, x1 = 0.6388	0.635
308.15 K, x1 = 0.7528	0.604
308.15 K, x1 = 0.8736	0.564
308.15 K, x1 = 0.9591	0.555

CCCCOCCCC
viscosity [mPa·s]
Conditions	298.15 K	308.15 K	313.15 K	318.15 K	323.15 K
101 kPa	0.6501	0.5918	–	0.5206	–
101.3 kPa	–	–	0.5715	–	0.5079

CCCCOCCCC + CCCCCCCC
[1], 101.3 kPa
Conditions	viscosity [mPa·s]
293.15 K, x1 = 0.057	0.544
293.15 K, x1 = 0.1118	0.55
293.15 K, x1 = 0.1947	0.56
293.15 K, x1 = 0.2718	0.571
293.15 K, x1 = 0.3576	0.582
293.15 K, x1 = 0.4202	0.592
293.15 K, x1 = 0.4966	0.603
293.15 K, x1 = 0.5465	0.61
293.15 K, x1 = 0.581	0.616
293.15 K, x1 = 0.6246	0.623
293.15 K, x1 = 0.7272	0.64
293.15 K, x1 = 0.8102	0.656
293.15 K, x1 = 0.8957	0.67
293.15 K, x1 = 0.9125	0.672
293.15 K, x1 = 0.9514	0.677
298.15 K, x1 = 0.057	0.504
298.15 K, x1 = 0.1118	0.51
298.15 K, x1 = 0.1947	0.52
298.15 K, x1 = 0.2718	0.53
298.15 K, x1 = 0.3576	0.54
298.15 K, x1 = 0.4502	0.551
298.15 K, x1 = 0.4966	0.557
298.15 K, x1 = 0.5465	0.564
298.15 K, x1 = 0.581	0.569
298.15 K, x1 = 0.6246	0.574
298.15 K, x1 = 0.7272	0.589
298.15 K, x1 = 0.8102	0.605
298.15 K, x1 = 0.8957	0.619
298.15 K, x1 = 0.9125	0.624
298.15 K, x1 = 0.9514	0.634
303.15 K, x1 = 0.057	0.481
303.15 K, x1 = 0.1118	0.486
303.15 K, x1 = 0.1947	0.495
303.15 K, x1 = 0.2718	0.503
303.15 K, x1 = 0.3576	0.513
303.15 K, x1 = 0.4502	0.524
303.15 K, x1 = 0.4966	0.53
303.15 K, x1 = 0.5465	0.537
303.15 K, x1 = 0.581	0.543
303.15 K, x1 = 0.6246	0.547
303.15 K, x1 = 0.7272	0.561
303.15 K, x1 = 0.8102	0.573
303.15 K, x1 = 0.8957	0.585
303.15 K, x1 = 0.9125	0.588
303.15 K, x1 = 0.9514	0.593
308.15 K, x1 = 0.0342	0.452
308.15 K, x1 = 0.1439	0.461
308.15 K, x1 = 0.1779	0.465
308.15 K, x1 = 0.3314	0.481
308.15 K, x1 = 0.4037	0.489
308.15 K, x1 = 0.4461	0.493
308.15 K, x1 = 0.4584	0.495
308.15 K, x1 = 0.5005	0.499
308.15 K, x1 = 0.6127	0.513
308.15 K, x1 = 0.6653	0.519
308.15 K, x1 = 0.7483	0.529
308.15 K, x1 = 0.8216	0.539
308.15 K, x1 = 0.9086	0.551
308.15 K, x1 = 0.9771	0.56

CCCCOCCCC + c1ccccc1
viscosity [mPa·s], [1], 101.32 kPa
Conditions	298.15 K	308.15 K
x1 = 0.0544	0.602	0.526
x1 = 0.1492	0.602	0.528
x1 = 0.2502	0.601	0.529
x1 = 0.3554	0.603	0.533
x1 = 0.4494	0.605	0.537
x1 = 0.5006	0.608	0.54
x1 = 0.5508	0.609	0.543
x1 = 0.6458	0.614	0.55
x1 = 0.7543	0.622	0.56
x1 = 0.854	0.629	0.571
x1 = 0.9502	0.637	0.583

CCCCOCCCC + CCOC(=O)OCC
viscosity [mPa·s], [1], 100 kPa
Conditions	x2 = 0.1008	x2 = 0.197	x2 = 0.3057	x2 = 0.4036	x2 = 0.5	x2 = 0.6003	x2 = 0.7012	x2 = 0.8002	x2 = 0.9007
303.15 K	0.603	0.603	0.606	0.611	0.618	0.628	0.64	0.657	0.676
308.15 K	0.563	0.562	0.566	0.571	0.578	0.588	0.6	0.616	0.636
313.15 K	0.524	0.525	0.528	0.533	0.541	0.551	0.563	0.578	0.598

CCCCOCCCC + CCCCCCCCC
viscosity [mPa·s], [1], 101 kPa
Conditions	x1 = 0.1048	x1 = 0.2085	x1 = 0.3111	x1 = 0.4126	x1 = 0.503	x1 = 0.6124	x1 = 0.7108	x1 = 0.904
298.15 K	0.6536	0.6484	0.6431	0.6401	0.6389	0.639	0.6411	0.6464
308.15 K	0.5796	0.5773	0.5746	0.5742	0.5749	0.578	0.5818	0.5882
318.15 K	0.5114	0.5101	0.5076	0.507	0.5078	0.5107	0.513	0.5185

CCCCOCCCC + Cc1ccc(C)cc1
viscosity [mPa·s], [1], 101.32 kPa
Conditions	298.15 K	308.15 K
x1 = 0.055	0.612	0.54
x1 = 0.1513	0.614	0.543
x1 = 0.2503	0.617	0.549
x1 = 0.3493	0.621	0.554
x1 = 0.4516	0.626	0.561
x1 = 0.5033	0.629	0.565
x1 = 0.5712	0.633	0.571
x1 = 0.628	0.637	0.575
x1 = 0.7507	0.641	0.583
x1 = 0.8517	0.644	0.587
x1 = 0.9496	0.643	0.589
